The experiment deals with CT peptide (residues 367–393 of human p53) labeled with FAM at the N-terminus (human) (UniProt P04637). The experiment in a line: fluorescence polarisation; fluorescence anisotropy; nonlabeled peptide titrated into 5 nM FAM-labeled CT peptide; 25 °C; 20 mM HEPES, 0.5 mM EDTA, 1 mM DTT, 0.2 mg/mL BSA, pH 7.9; in the absence of salt; apparent dissociation constant, one by one binding fit.

Take Wmot2 (266–280) (peptide): the Kd came out at 270 µM.
